The source of these data is paper PMC8667045, “Into Deep Water: Optimizing BCL6 Inhibitors by Growing into a Solvated Pocket” (Journal of Medicinal Chemistry, 2021).

Values joined by “and” are separate entries in the source; they are usually repeats but may differ in a detail not shown here. Equal values may be shown once. Read-outs that look alike come from different tables or passages of the source.

For experiment [1], the target named is T1, BCL6 BTB domain (Homo sapiens, UniProt P41182). The conditions noted are these: for LE: ligand efficiency from TR-FRET pIC50; for LLE: lipophilic ligand efficiency from TR-FRET pIC50.
Experiment [2] deals with T1, BCL6 BTB domain. Description: biochemical.

On to `CN(C)c1cc(=O)[nH]c2ccc(Nc3ccnc(Cl)c3C#N)cc12` [Compound 8a, 2-Chloro-4-((4-(dimethylamino)-2-oxo-1,2-dihydroquinolin-6-yl)amino)nicotinonitrile], for which, on BCL6 BTB domain [1], the LE turned out to be 0.31 and the LLE is 3.05.

With `Cn1c(=O)n(C)c2cc(Nc3ccnc(Cl)c3C#N)ccc21` [Compound 1], the LE on BCL6 BTB domain [1] was determined as 0.35. Besides, at BCL6 BTB domain [1], the LLE turned out to be 3.09. The “BCL6 TR-FRET pIC50 mean” value at BCL6 BTB domain [1] (mean of n replicates) is 5.49 and 5.486. In addition, the IC50 at BCL6 BTB domain [1] (read-out: BCL6 TR-FRET Geo Mean IC50, geometric mean of n replicates, supplement) is 3.27 µM; at BCL6 BTB domain [1] (read-out: TR-FRET IC50 individual replicates, single replicates, italic values used 10nM BCL6, otherwise 1nM BCL6), 3.32 µM and 4.22 µM and 2.23 µM and 1.7 µM and 9.38 µM and 3.23 µM; against BCL6 BTB domain [2] (BCL6 TR-FRET Geo Mean IC50, geometric mean of n replicates, supplement) it was 3.27 µM; against BCL6 BTB domain [2] (TR-FRET IC50 individual replicates, single replicates, italic values used 10nM BCL6, otherwise 1nM BCL6) it was 2.47 µM.

`CNC(=O)C(Nc1cc(=O)[nH]c2ccc(Nc3ccnc(Cl)c3C#N)cc12)C1CC1` (stereo not shown) [Compound 12d, 2-((6-((2-Chloro-3-cyanopyridin-4-yl)amino)-2-oxo-1,2-dihydroquinolin-4-yl)amino)-2-cyclopropyl-N-methylacetamide]: on BCL6 BTB domain [1], the LE turned out to be 0.28 and the LLE is given as 3.97.

At BCL6 BTB domain [1], `CNC(=O)CNc1cc(=O)[nH]c2ccc(Nc3ccnc(Cl)c3C#N)cc12` [Compound 12e, 2-((6-((2-Chloro-3-cyanopyridin-4-yl)amino)-2-oxo-1,2-dihydroquinolin-4-yl)amino)-N-methylacetamide] came in with an LE of 0.24 and an LLE of 3.42.

At BCL6 BTB domain [1], `Cn1c(=O)ccc2cc(Nc3ccnc(Cl)c3C#N)ccc21` [Compound 2, 2-Chloro-4-((1-methyl-2-oxo-1,2-dihydroquinolin-6-yl)amino)nicotinonitrile] returned an LE of 0.35 and an LLE of 2.87.

Take `CN1CCN(c2cc(=O)[nH]c3ccc(Nc4ccnc(Cl)c4C#N)cc23)CC1` [Compound 8c, 2-Chloro-4-((4-(4-methylpiperazin-1-yl)-2-oxo-1,2-dihydroquinolin-6-yl)amino)nicotinonitrile]: at BCL6 BTB domain [1], the LE is listed as 0.28 and the LLE was 3.68.

On BCL6 BTB domain [1], `CC(Nc1cc(=O)n(CC2CC2)c2ccc(Nc3ccnc(Cl)c3C#N)cc12)c1ncccn1` (stereo not shown) [Compound 17a, 2-Chloro-4-((1-(cyclopropylmethyl)-2-oxo-4-((1-(pyrimidin-2-yl)ethyl)amino)-1,2-dihydroquinolin-6-yl)amino)nicotinonitrile] had an LE of 0.26 and an LLE of 3.48.

With `CNC(=O)[C@@H](C)Nc1cc(=O)[nH]c2ccc(Nc3ccnc(Cl)c3C#N)cc12` [Compound 12b, (R)-2-((6-((2-Chloro-3-cyanopyridin-4-yl)amino)-2-oxo-1,2-dihydroquinolin-4-yl)amino)-N-methylpropanamide], on BCL6 BTB domain [1], the LE was found to be 0.33 and the LLE worked out at 5.00.

In the case of `N#Cc1c(Nc2ccc3[nH]c(=O)cc(N4CCOCC4)c3c2)ccnc1Cl` [Compound 8d, 2-Chloro-4-((4-morpholino-2-oxo-1,2-dihydroquinolin-6-yl)amino)nicotinonitrile], on BCL6 BTB domain [1], the LE was determined as 0.29 and the LLE is 3.87.

Consider `CC(Nc1cc(=O)n(CC2CCC2)c2ccc(Nc3ccnc(Cl)c3C#N)cc12)c1ncccn1` (stereo not shown) [Compound 17b, 2-Chloro-4-((1-(cyclobutylmethyl)-2-oxo-4-((1-(pyrimidin-2-yl)ethyl)amino)-1,2-dihydroquinolin-6-yl)amino)nicotinonitrile], for which, on BCL6 BTB domain [1], the LE amounted to 0.26 and the LLE amounted to 3.19.

On BCL6 BTB domain [1], `Cn1cc(-c2cc(=O)[nH]c3ccc(Nc4ccnc(Cl)c4C#N)cc23)cn1` [Compound 8e, 2-Chloro-4-((4-(1-methyl-1H-pyrazol-4-yl)-2-oxo-1,2-dihydroquinolin-6-yl)amino)nicotinonitrile] displayed an LE of 0.30 and an LLE of 3.54.

On to `Cn1c(=O)cc(NCC2CC2)c2cc(Nc3cc(C(=O)O)nc(Cl)c3C#N)ccc21` [Compound 11d, 6-Chloro-5-cyano-4-((4-((cyclopropylmethyl)amino)-1-methyl-2-oxo-1,2-dihydroquinolin-6-yl)amino)picolinic Acid], for which, at BCL6 BTB domain [1], the LE is reported as 0.30 and the LLE was determined as 3.06.

On BCL6 BTB domain [1], `Cc1cnc(C(C)Nc2cc(=O)n(C)c3ccc(Nc4ccnc(Cl)c4C#N)cc23)nc1` (stereo not shown) [Compound 24a, 2-Chloro-4-((1-methyl-4-((1-(5-methylpyrimidin-2-yl)ethyl)amino)-2-oxo-1,2-dihydroquinolin-6-yl)amino)nicotinonitrile] yielded an LE of 0.31 and an LLE of 4.54.

For the compound `CCNc1cc(=O)[nH]c2ccc(Nc3ccnc(Cl)c3C#N)cc12` [Compound 8f, 2-Chloro-4-((4-(ethylamino)-2-oxo-1,2-dihydroquinolin-6-yl)amino)nicotinonitrile], at BCL6 BTB domain [1], the LE is listed as 0.34 and the LLE was determined as 3.48.

For the compound `Cn1c(=O)cc(NC(C)(C)c2ncc(C3CC3)cn2)c2cc(Nc3ccnc(Cl)c3C#N)ccc21` [Compound 25, 2-Chloro-4-((4-((2-(5-cyclopropylpyrimidin-2-yl)propan-2-yl)amino)-1-methyl-2-oxo-1,2-dihydroquinolin-6-yl)amino)nicotinonitrile], at BCL6 BTB domain [1], the LE is 0.30 and the LLE is on record as 4.58.

In the case of `N#Cc1c(Nc2ccc3[nH]c(=O)cc(N4CCCCC4)c3c2)ccnc1Cl` [Compound 8b, 2-Chloro-4-((2-oxo-4-(piperidin-1-yl)-1,2-dihydroquinolin-6-yl)amino)nicotinonitrile], at BCL6 BTB domain [1], the LE was determined as 0.31 and the LLE is on record as 2.83.

On to `CCCNc1cc(=O)n(C)c2ccc(Nc3cc(C(=O)O)nc(Cl)c3C#N)cc12` [Compound 11b, 6-Chloro-5-cyano-4-((1-methyl-2-oxo-4-(propylamino)-1,2-dihydroquinolin-6-yl)amino)picolinic Acid], for which, at BCL6 BTB domain [1], the LE was 0.28 and the LLE came out at 2.32.

For the compound `CNC(=O)C(C)Nc1cc(=O)[nH]c2ccc(Nc3ccnc(Cl)c3C#N)cc12` (stereo not shown) [Compound 12a, 2-((6-((2-Chloro-3-cyanopyridin-4-yl)amino)-2-oxo-1,2-dihydroquinolin-4-yl)amino)-N-methylpropanamide], at BCL6 BTB domain [1], the LE came to 0.31 and the LLE stood at 4.66.

As to `CCNc1cc(=O)n(C)c2ccc(Nc3cc(C(=O)O)nc(Cl)c3C#N)cc12` [Compound 11a, 6-Chloro-5-cyano-4-((4-(ethylamino)-1-methyl-2-oxo-1,2-dihydroquinolin-6-yl)amino)picolinic Acid], at BCL6 BTB domain [1], the LE was 0.30 and the LLE stood at 3.05.

On BCL6 BTB domain [1], `Cc1nnc(C(C)Nc2cc(=O)n(C)c3ccc(Nc4ccnc(Cl)c4C#N)cc23)o1` (stereo not shown) [Compound 13c, 2-Chloro-4-((1-methyl-4-((1-(5-methyl-1,3,4-oxadiazol-2-yl)ethyl)amino)-2-oxo-1,2-dihydroquinolin-6-yl)amino)nicotinonitrile] came in with an LE of 0.27 and an LLE of 4.56.

At BCL6 BTB domain [1], `Cn1c(=O)cc(NCCF)c2cc(Nc3cc(C(=O)O)nc(Cl)c3C#N)ccc21` [Compound 11c, 6-Chloro-5-cyano-4-((4-((2-fluoroethyl)amino)-1-methyl-2-oxo-1,2-dihydroquinolin-6-yl)amino)picolinic Acid] returned an LE of 0.29 and an LLE of 3.46.

Consider `CNC(=O)[C@H](C)Nc1cc(=O)[nH]c2ccc(Nc3ccnc(Cl)c3C#N)cc12` [Compound 12c, (S)-2-((6-((2-Chloro-3-cyanopyridin-4-yl)amino)-2-oxo-1,2-dihydroquinolin-4-yl)amino)-N-methylpropanamide], for which, on BCL6 BTB domain [1], the LE is reported as 0.28 and the LLE is listed as 3.97.
